The values that follow come from patent US8283358B2, “N-sulfonamido polycyclic pyrazolyl compounds” (Elan Pharmaceuticals, Inc., priority 2008, dated 2012).

Usually IC50 stands for the concentration that gives 50% inhibition.

Where only a bound is given, the exact number is not on record here.

The experiment has as its target gamma-secretase (partially purified extract of IMR-32 cell membranes; substrate MBP-C125 Swe fusion protein, cleavage at the Aβ40 site) (Homo sapiens, UniProt P49768). As to the kind of experiment: Gamma-secretase APP enzyme assay (Example A). Format: biochemical. The following applies: read-out: γAPP IC50; class symbols; assay described in Example A.
With `COC(=O)CCNc1ccc(C2CC3Cc4[nH]ncc4C(C2)N3S(=O)(=O)c2ccc(C(F)(F)F)cc2)cc1` (centres unmarked), the IC50 was less than 100 nM.
Regarding `O=S(=O)(c1ccc(C(F)(F)F)nc1)N1C2c3ccccc3C1C(O)c1[nH]ncc12` (centres unmarked), the IC50 was less than 100 nM.
`O=S(=O)(c1ccc(C(F)(F)F)cc1)N1C2c3ccccc3C1C(F)c1[nH]ncc12` (single isomer, unassigned): the IC50 is less than 100 nM.
For the molecule `O=S(=O)(c1ccc(C(F)(F)F)nc1)N1C2c3cn[nH]c3C(F)C1c1c(F)cccc12` (centres unmarked), the IC50 is less than 100 nM.
Regarding `O=S(=O)(c1ccc(C(F)(F)F)nc1)N1C2c3ccccc3C1C(F)c1[nH]ncc12` (single isomer, unassigned), the IC50 was more than 1000 nM.
Regarding `COC(=O)COCCNc1ccc(C2CC3Cc4[nH]ncc4C(C2)N3S(=O)(=O)c2ccc(C(F)(F)F)cc2)cc1` (centres unmarked), the IC50 was more than 1000 nM.
With `O=S(=O)(c1ccc(C(F)(F)F)nc1)N1C2c3cn[nH]c3C(O)C1c1cccc(F)c12` (centres unmarked), the IC50 was less than 100 nM.
For the molecule `O=S(=O)(c1ccc(C(F)(F)F)cc1)N1C2c3ccccc3C1C(O)c1[nH]ncc12` (single isomer, unassigned) [175], the IC50 was less than 100 nM.
